In PMC2946453 (Journal of pharmaceutical and biomedical analysis, 2010):

Test system: CCCCC/C=C\C/C=C\C/C=C\C/C=C\CCCC(=O)O
Assay: purified protein, by the assay type
Conditions: pH 8.0; 37.0 °C

ovine COX-2 (Ovis aries)
Km: 1.94 ± 0.39 µM
